Test results taken from ChEMBL document CHEMBL1125119, “Pyrroloisoquinoline antidepressants. 3. A focus on serotonin” (J Med Chem, 1990).

Molecular target: serotonin transporter (Rattus norvegicus)
Assay: Tested in vitro for serotonin(5-HT) neuronal uptake inhibition

Ki [nM]	SMILES
2.9	Clc1ccc(C2CN3CCCC3c3cc(Cl)ccc32)cc1 (stereo not drawn)
4.8	FC(F)(F)c1ccc(C2CN3CCCC3c3ccccc32)cc1 (stereo not drawn)
19.1	NC(=O)c1ccc(C2CN3CCCC3c3ccccc32)cc1 (stereo not drawn)
